Experimental data from US10828301B2, “2,4-pyrimidinediamine compounds and their uses” (Rigel Pharmaceuticals, Inc, priority 2002, dated 2020).
Read-outs that look alike come from different tables or passages of the source.

Columns and labels:
[1] = design: species or system rabbits and primates; mice and rats; conditions: in vivo
Excerpt: A short discussion of key toxicology studies is provided.

[2] = mouse, in vivo, po
Method: Several non-GLP pilot toxicity studies have been conducted in rodents. […] In a 14-day oral toxicity study in the mouse was conducted with doses of 100, 300 and 1000 mg/kg.

[3] = Sheep model of allergic asthma (Ascaris suum challenge); type: in vivo; conditions: administered in an aqueous suspension
Method: Sheep develop bronchoconstriction within minutes of exposure to inhaled antigen (Ascaris suum), with maximal airflow obstruction during the early allergic response (EAR). Release of preformed mast cell mediators is likely responsible for this early phase of airflow obstruction. […] In the sheep, AHR develops a few hours following antigen challenge, and can persist for up to 2 weeks.
In the sheep model of allergic asthma, sheep are administered aerosols of test article via an endotracheal tube, followed by an aerosol challenge with antigen extracted from the roundworm, Ascaris suum, to which the sheep are naturally allergic. Allergen challenge leads to direct bronchoconstriction (both EAR and LAR) and a persistent non-specific AHR. These three characteristics are similar to those seen in human allergic asthmatics. The activity of the test agent is determined by changes in the lung resistance (RL), which is calculated from measurements of transpulmonary pressure, flow, and respiratory volume. […] The LAR is a less pronounced increase in RL, which starts approximately 5-6 hours following allergen challenge and is resolved by 8 hours post-challenge. Twenty-four hours after the challenge, a dose response to carbachol is measured to determine the AHR, which is expressed as the dose of carbachol required to increase RL by 400% over baseline. […]

Question: Which results are given for `Oc1cccc(Nc2ncc(F)c(Nc3cccc(O)c3)n2)c1` [Compound R921218, N2,N4-Bis(3-hydroxyphenyl)-5-fluoro-2,4-pyrimidinediamine]?
Answer: core safety pharmacology battery [1]: no adverse findings; genetic toxicology testing [1]: no evidence for mutagenic or clastogenic potential

Question: With `Nc1cccc(Nc2ncc(F)c(Nc3cccc(N)c3)n2)c1` [Compound R921302, N2,N4-Bis(3-aminophenyl)-5-fluoro-2,4-pyrimidinediamine] as the molecule, how does the tolerability ([2]; 100 mg/kg) read?
Answer: well tolerated

Question: What about the tolerability ([2]; 300 mg/kg) of the same molecule?
Answer: not tolerated

Question: What about the “effect on the EAR (in words)” value [3] of the same molecule?
Answer: failed to inhibit the EAR
